Laboratory results as given in PubChem BioAssay AID720708 (National Center for Advancing Translational Sciences (NCATS), 2013).
The entries are a selection whose mix differs from that of the whole data set. Some of these compounds have results that are not shown, active ones among them. Activity calls are given as the source filed them. The call rests on the fitted dose curve; in most records, active means well fitted inhibition curve with a large enough effect; inconclusive means small, poorly fitted or top-dose-only effect; inactive means no such curve, though single readings can be large or run the other way.

Sequences of proteins named here, by UniProt entry; tags and fusion partners are left off.
UniProt Q8WZA2, whole entry: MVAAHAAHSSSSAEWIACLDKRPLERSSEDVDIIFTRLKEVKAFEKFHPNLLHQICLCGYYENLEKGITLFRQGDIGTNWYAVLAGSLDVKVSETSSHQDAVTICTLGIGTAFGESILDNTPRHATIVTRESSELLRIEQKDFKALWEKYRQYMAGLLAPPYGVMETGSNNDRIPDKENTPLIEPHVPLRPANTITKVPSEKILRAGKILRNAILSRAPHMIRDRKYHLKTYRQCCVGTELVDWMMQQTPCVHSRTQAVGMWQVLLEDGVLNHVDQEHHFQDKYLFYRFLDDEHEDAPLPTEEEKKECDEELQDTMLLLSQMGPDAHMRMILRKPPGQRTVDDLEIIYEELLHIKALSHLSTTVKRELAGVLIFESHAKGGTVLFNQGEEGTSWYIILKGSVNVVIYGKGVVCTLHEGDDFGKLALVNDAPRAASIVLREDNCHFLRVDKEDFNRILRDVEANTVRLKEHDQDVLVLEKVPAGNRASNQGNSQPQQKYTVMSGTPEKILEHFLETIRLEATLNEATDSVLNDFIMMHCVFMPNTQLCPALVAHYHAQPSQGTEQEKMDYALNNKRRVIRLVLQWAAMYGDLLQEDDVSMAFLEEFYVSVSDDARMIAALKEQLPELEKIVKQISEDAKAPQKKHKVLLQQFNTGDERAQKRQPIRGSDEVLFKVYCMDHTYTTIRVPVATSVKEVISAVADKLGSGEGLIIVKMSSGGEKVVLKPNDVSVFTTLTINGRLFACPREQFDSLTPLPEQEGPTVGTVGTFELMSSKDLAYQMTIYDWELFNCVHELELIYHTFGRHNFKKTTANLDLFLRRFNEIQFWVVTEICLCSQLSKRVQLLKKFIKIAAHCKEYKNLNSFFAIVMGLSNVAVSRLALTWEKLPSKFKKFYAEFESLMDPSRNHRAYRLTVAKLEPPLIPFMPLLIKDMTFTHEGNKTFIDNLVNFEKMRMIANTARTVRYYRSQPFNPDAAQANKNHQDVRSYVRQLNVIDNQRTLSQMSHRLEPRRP

target: Rap guanine nucleotide exchange factor 4 (Homo sapiens) (UniProt Q8WZA2); assay: qHTS for Antagonist of cAMP-regulated guanine nucleotide exchange factor 2 (EPAC2): primary screen; details: EPAC2 GEF exchange of Rap1B-BODIPY-GDP, fluorescence; at 114 µM (top of the series) unless noted; further: nearly all actives have a fitted effect of over 45% in size
Text: In multi-cellular eukaryotic organisms, the effects of cAMP are transduced by two ubiquitously-expressed intracellular cAMP receptors, the classic protein kinase A/cAMP-dependent protein kinase (PKA/cAPK) and the more recently discovered exchange protein directly activated by cAMP/cAMP-regulated guanine nucleotide exchange factor (EPAC/cAMP-GEF). Both PKA and EPAC are ubiquitously expressed in all tissues, and an increase in intracellular cAMP levels will lead to the activation of both PKA and EPAC. Therefore, careful dissections of the individual role and relative contribution of EPAC and PKA within the overall cAMP signaling in various model systems are critical for further elucidating the mechanism of cAMP signaling. To date no EPAC-specific antagonists and agonist, as well as isoform-specific agonists have been reported, and developing EPAC-specific pharmacological probes to determine the physiological functions that EPAC play in the overall cAMP-mediated signaling remains a major challenge within the research field. Furthermore, identified regulators of EPAC may lead to new mechanism-based therapeutic strategies specifically targeting the EPAC / cAMP-signaling components as EPAC has been implicated to play important roles in major human pathological conditions such as diabetes, heart disease, and cancer.
This qHTS will be used to screen the Molecular Libraries Small Molecule Repository (MLSMR) as a concentration-titration series using the NCGC unique quantitative screening (qHTS) platform to find inhibitors for EPAC2. In addition, this assay will also be used as a counterscreen for the EPAC1 qHTS. This fluorescent based assay is developed and validated for EPAC2 that measures exchange using EPAC effector Rap1 complex with BODIPY-GDP, a GDP analog with a tethered fluorophores. Inhibitors are identified by monitoring the change in fluorescence signal as the exchanged free BODIPY-GDP has a reduced fluorescence compared to Rap1-bound BODIPY-GDP. Decrease in signal (inhibition) is the desired outcome for the EPAC2 antagonist while no activity in this assay is desired for the EPAC1 antagonist counterscreen.
NIH Chemical Genomics Center [NCGC]
NIH Molecular Libraries Probe Centers Network [MLPCN]
Assay Submitter (PI): Xiaodong Cheng, The University of Texas, Medical Branch
Briefly, three uL of reagents (100 nM EPAC2, 250 nM RAP1B-BODIPY-GDP, 50 uM GDP) were dispensed into a 1536-well Greiner black solid-bottom medium binding assay plate. Controls and test compounds (23 nL) were transferred to the plate via a Kalypsys pin tool equipped with a 1536-pin array. The plates were centrifuged at 1,000 rpm for 15 seconds followed by 5 minute incubation at room temperature. The assay plates were read at 5 minute intervals for 30 minutes in the ViewLux plate reader using 480nm excitation and 540nm emission filters. The results were normalized to the agonist positive control ATA and DMSO.
On the % scale 0 is the no-effect control and ±100 the full control effect.

SMILES	activity, negative = inhibition
CN(C)C1CCCC1OC(=O)C(O)(c1ccccc1)c1ccccc1 (stereo unspecified)	inactive: 14%
CN(C)c1ccc(C(=O)NCC2(N(C)C)CCCCC2)cc1	inactive: -7.47%
Cc1ccccc1C(=O)NCC1(N2CCCCC2)CCCCC1	inactive: 4.99%
O=C(NCC1(N2CCCCC2)CCCCC1)c1cc(F)c(F)cc1Cl	inactive: 2.55%
C=CCN1CCN(CCOC(=O)C(O)(c2ccccc2)c2ccccc2)CC1	inactive: 14.1%
O=C(NCC1(N2CCCCC2)CCCCC1)c1cccc(Br)c1	inactive: 1.17%
Cc1cc(C(=O)NCC2(N3CCCCC3)CCCCC2)ccc1[N+](=O)[O-]	inactive: -5.81%
CCN1CCCC(OC(=O)C2(O)c3ccccc3C=Cc3ccccc32)C1 (stereo unspecified)	inactive: 0.843%
COc1ccc(C(=O)NCC2(N(C)C)CCCCC2)cc1	inactive: 4.24%
O=C(NCC1(N2CCCCC2)CCCCC1)c1cc([N+](=O)[O-])ccc1Cl	inactive: 5.55%
CN1[C@@H]2CC[C@H]1CC(OC(=O)C(O)(c1ccccc1)c1ccccc1)C2 (stereo partly specified)	inactive: 9.95%
CC(C)N1C(=O)CC2(CCN(CCOC(=O)C(O)(c3ccccc3)c3ccccc3)CC2)C1=O	inactive: 7.3%
COc1cc(SC)ccc1C(=O)NCC1(N(C)C)CCCCC1	inactive: -2.31%
CCN(CC)CC(C)C(C)OC(=O)C(O)(c1ccccc1)c1ccccc1 (stereo unspecified)	inactive: 6.38%
Cc1ccc(C(=O)NCC2(N3CCCCC3)CCCCC2)cc1	inactive: -8.5%
O=C(OC1CN2CCC1CC2)C(CO)(c1ccccc1)c1ccccc1 (stereo unspecified)	inactive: -20.4% [at 57.1 µM]
COc1ccc(Br)c(C(=O)NCC2(N3CCCCC3)CCCCC2)c1	inactive: -6.25%
C=C(C)C#CC(O)(C(=O)OC1CCN(C)CC1)c1ccccc1 (stereo unspecified)	inactive: 15.9%
CN(C)c1cccc(C(=O)NCC2(N(C)C)CCCCC2)c1	inactive: 16.1%
O=C(OCCN1CCCC1)C(O)(c1ccccc1)c1ccccc1	inactive: 8.12%
CC(C)Oc1ccc(C(=O)NCC2(N(C)C)CCCCC2)cc1	inactive: 4.27%
CN(C)C1(CNC(=O)c2ccc(Br)cc2)CCCCC1	inactive: 2.51%
COc1cc(C(=O)NCC2(N(C)C)CCCCC2)c([N+](=O)[O-])cc1OC	inactive: 6.8%
COc1ccc(Cl)cc1C(=O)NCC1(N(C)C)CCCCC1	inactive: -3.17%
COc1cccc(C(=O)NCC2(N3CCCCC3)CCCCC2)c1	inactive: 4.1%
O=C(NCC1(N2CCCCC2)CCCCC1)c1cccc(Cl)c1	inactive: -5.76%
